In patent US10052392B2, “Low molecular weight polyethylene glycol drug conjugates having improved drug biological activity” (JENKEM TECHNOLOGY CO., LTD. (TIANJIN), priority 2013, dated 2018):

Experiments:
K562 = experiment: Inhibition of cell proliferation, CTG method, 72 hours; assay type: cell-based; details: K562 cells
Method: (§1) Cells are cultured under a complete culture medium; when cells are attached to the wall, drug of different concentrations is added in each tumor cell line for treatment, and a positive control, a blank control and a solvent control are set. Cells are incubated for 72 hours and then CTG method is used for detection.

KU812 = experiment: as above; assay type: cell-based; details: KU812 cells
Method: as §1

PC-3 = experiment: as above; assay type: cell-based; details: PC-3 cells
Method: as §1

SUP-B15 = experiment: as above; assay type: cell-based; details: SUP-B15 cells
Method: as §1

Caco-2 cell monolayer = Caco-2 cell monolayer transmembrane transport (unidirectional and bidirectional)

## COCCOCCOCCOCCOCCOCCN1CCN(c2cc(Nc3ncc(C(=O)Nc4c(C)cccc4Cl)s3)nc(C)n2)CC1 [DSTN-51, Methoxyl Pentaethylene Glycol-dasatinib]
K562
  IC50: 2.22 nM
  Maximum inhibition rate: 79.04%
KU812
  IC50: 0.5 nM
  Maximum inhibition rate: 96.47%
PC-3
  Maximum inhibition rate: 56.67%
PC-3; “—” indicates that IC50 value cannot be calculated
  IC50: 83100 nM
SUP-B15
  IC50: 170 nM
  Maximum inhibition rate: 91.39%
Caco-2 cell monolayer; Caco-2, A→B, 90 min incubation
  Papp (*10^−6)A→B: 8.55 ± 2.29 *10^−6 cm/s
Caco-2 cell monolayer; Caco-2, B→A, 90 min incubation
  Papp (*10^−6)B→A: 23.91 ± 1.24 *10^−6 cm/s
Caco-2 cell monolayer; Caco-2 efflux ratio, >2 suggests efflux transporter
  Papp (B→A)/Papp (A→B): 2.80
